In patent publication US20230406906A1, “SERPIN PEPTIDES AND METHODS OF USING THE SAME” (SERPIN PHARMA, LLC, priority 2022, published 2023):

Columns and labels:
Balb/C mice = experiment: Calcipotriol (MC903)/OVA induced atopic dermatitis model, eosinophils by MBP staining; format: in vivo
Protocol: Dermatitis was induced on the skin of BALB/c mice with a series of calcipotriol (MC903) and OVA challenges over an 8-week period. SP163M (100 μg/mouse), A1AT (2 mg/mouse) or vehicle (DDW) was given twice weekly starting at 4 weeks. The number of eosinophils infiltrating the epithelial sections were quantified by MBP staining.
Accordingly, SP163M improved outcomes in the atopic dermatitis animal model.

TSLP = experiment: Poly IC induced TSLP in HaCat cells (ELISA); format: cell-based, human; settings: Poly IC 50 μg/ml 24 hours, 100 μg/ml pretreatment
Protocol: Cells were pretreated with either vehicle or SP163M (100 μg/ml). TSLP was measured in the supernatant via ELISA (p=0.0045 vs. vehicle treated Poly IC induced cells). FIG. 10B: HaCat cells treated as in FIG. 10A were analyzed via the CellTiter-Glo® Luminescent Cell Viability Assay by Promega. The percent change from untreated (no Poly IC) cells were compared between SP163M vs. vehicle treated poly IC induced control (p=0.0068). FIG. 10C: HaCat cells were insulted with TNFα and immunoblotted for phospho-IkBa (Ser32). GAPDH served as a loading control and signal normalization.
In this model of dermal inflammation, SP163M decreased a key cytokine (TSLP) that controls allergic responses, and protected cells from death.

C57BL6 mice = experiment: Intraplantar formalin test; format: in vivo
Protocol: Intraplantar formalin and capsaicin models: Male mice (n=33) were acclimated to the behavior testing facility for at least 60 min. Mice were randomized into four groups SP163M (0.02, 0.2, and 2 μg/g) or vehicle were administered subcutaneously. After 1 h, 20 μl of 2.5% formalin was injected subcutaneously into the plantar area of left hind paw. Immediately after formalin injection, mice were placed in a Plexiglas box (22×22×14 cm). Two observers, blinded to treatments, recorded the total amount of time mice spent on licking and flinching the left hind paw every 5 min over a one-hour period. To quantify the formalin response, activity during early phase (0-10 min) and later phase (15-50 min) were examined separately.

GFAP = experiment: Immunohistochemistry of L4 DRGs two days after PNL, GFAP; format: in vivo, mice
Protocol: Neuropathic pain model: Mice (n=30) were randomly assigned to two different groups: SP163M (2 μg/g; s.c. 100 μl) and vehicle (H20 s.c. 100 μl). Mice were treated 1 h prior to partial nerve ligation (PNL) and then daily at least 1 h prior to behavior testing for 2 weeks. PNL studies were performed as previously disclosed^59 and adapted for mice.^57 Male mice were anesthetized with 3% isoflurane (Vetone, USA) in 1.5 L/min oxygen (Praxair, USA) and maintained with 2.5% isoflurane. An incision was made along the long axis of the femur. The sciatic nerve was exposed at mid-thigh level by separating the biceps femoris and the gluteus superficialis and then carefully cleared of surrounding connective tissue. A 9-0 nylon suture (Ethicon, Inc., Somerville, NJ, USA) was inserted into the nerve and ligated so that the one-third to one-half of the nerve was included. The muscle and skin layers were closed using Reflex7 7 mm stainless steel wound clips (CellPoint Scientific, Inc., Gaithersburg, MD, USA). For behavior testing, mice were acclimated, and baseline tested for one week prior to PNL. […] Filaments were presented in a consecutive fashion either ascending or descending using the up-down method as previously disclosed^60 and modified for mice.^57,61 The filament that caused paw withdrawal 50% of the time (the 50% PWT) was determined. […]

CCCC[C@H](NC(=O)[C@H](CC(C)C)NC(=O)[C@H](Cc1ccccc1)NC(=O)[C@@H](NC(=O)[C@H](Cc1ccccc1)NC(=O)[C@@H]1CCCN1C(=O)[C@H](CCCCN)NC(=O)[C@H](CC(N)=O)NC(=O)[C@H](Cc1ccccc1)NC(=O)[C@H](CCCCN)NC(=O)[C@@H](NC(C)=O)C(C)C)C(C)C)C(=O)N[C@H](C(=O)N[C@@H](CCC(=O)O)C(=O)N[C@@H](CCC(N)=O)C(=O)N[C@@H](CC(N)=O)C(=O)N[C@H](C(=O)N[C@@H](CCCCN)C(N)=O)[C@@H](C)O)[C@@H](C)CC [SP163M, Ac-VKFNKPFVFLNIeIEQNTK-NH2]
eosinophils per section vs vehicle control (Balb/C mice; 100 μg/mouse twice weekly starting at 4 weeks, p=0.045): significantly lower levels of eosinophils per section compared to vehicle control
eosinophilic infiltration compared to A1AT (Balb/C mice; 100 μg/mouse vs A1AT 2 mg/mouse): decreased eosinophilic infiltration compared to A1AT given at 20× higher dose
TSLP in supernatant (TSLP): a decrease of both TSLP
licking time, early phase (0-10 min) (C57BL6 mice; 0.02 μg/g s.c. 1 h before 2.5% formalin): 80 s
AUC of licking time, late phase (C57BL6 mice; 0.02 μg/g vs vehicle, Tukey's post hoc test): p=ns
licking time, early phase (0-10 min) (C57BL6 mice; 2 μg/g s.c. 1 h before 2.5% formalin): 60 s
peak late phase start time (C57BL6 mice; 2 μg/g, vehicle peak after 25 min): 30 min
AUC of licking time, late phase (15-50 min) (C57BL6 mice; 0.2 and 2 μg/g vs vehicle): both middle (0.2 μg/g) and high (2 μg/g) doses reduced licking time in the late phase compared to vehicle controls
AUC of licking time, early phase (C57BL6 mice; low (0.02 μg/g) and high (2 μg/g) dose vs vehicle): both the low and high SP163M treatment groups reached statistical significance
decrease in GFAP levels in DRGs (GFAP): 6 fold
